In article PMC9589981, “High-Resolution Epitope Mapping and Affinity Binding Analysis Comparing a New Anti-Human LAG3 Rabbit Antibody Clone to the Commonly Used Mouse 17B4 Clone” (Antibodies, 2022):

Tests used:
[1] = test system: mouse 17B4 antibody (binding to LAG3 from HH cell lysate); test: ACE (automated capillary electrophoresis) peptide inhibition assay, 17B4; settings: 17B4, HH cell lysate
Method: (§1) For each assay run, HH cell lysate was mixed with 0.1× WES sample buffer reagent, and reconstituted WES 5× Fluorescent Mix reagent followed by denaturation at 95 °C for 3 min and then held on ice followed until use. Denatured sample was added to each of the designated wells of the separation module sampling plate. Dilutions of the stock rabbit SP464 and mouse 17B4 monoclonal antibodies were made to the desired concentrations using the WES detection module Antibody Dilution Buffer 2 reagent. Diluted antibody solutions were added to the designated wells of the separation module sampling plate. The remaining WES assay reagents were finally added to the plate and then processed in the WES instrument using the default running and detection parameters.
HH cell lysate samples were prepared and used as above for antibody titration assays. Rabbit SP464 and mouse 17B4 antibodies were diluted to 4 µg/mL in the WES detection module Antibody Dilution Buffer 2 reagent. […] The IC50 value for each alanine-substituted peptide was determined using a non-linear fit of the log concentration of peptide inhibitor versus the combined peak areas of the soluble and full-length endogenous LAG3 bands using the four-parameter model of Prism GraphPad Prism with the bottom value constrained to zero.

[2] = test system: rabbit SP464 antibody (binding to LAG3 from HH cell lysate); test: ACE (automated capillary electrophoresis) peptide inhibition assay, SP464; settings: for inhibition of SP464 binding by immunogen fragment (ACE): result in words, peptide at 5000 nM and 500 nM, HH cell lysate
Method: as §1
HH cell lysate samples were prepared and used as above for antibody titration assays. Rabbit SP464 and mouse 17B4 antibodies were diluted to 4 µg/mL in the WES detection module Antibody Dilution Buffer 2 reagent. The antibody solutions were then diluted 1:1 (vol/vol) with varying concentrations of peptide, or diluent as a no peptide control, for 1 h at RT, and 10 µL of each antibody/peptide solution was added to the designated wells of the separation module sampling plate. Samples were run in duplicates or triplicates. Plates were then processed in the WES instrument using default running and detection parameters. The IC50 value for each alanine-substituted peptide was determined using a non-linear fit of the log concentration of peptide inhibitor versus the combined peak areas of the soluble and full-length endogenous LAG3 bands using the four-parameter model of Prism GraphPad Prism with the bottom value constrained to zero.

Sequence: GPPAAAPGHPLAPGPHPAAPSSWGPRPRRY [full-length immunogen, 30-mer LAG3 immunogen peptide used to create both 17B4 and SP464, reference compound]
- peptide concentrations at which antibody binding was eliminated [1]: greater than 50 nM
- peptide concentrations at which antibody binding was eliminated ([2]; ACE, SP464, HH cell lysate): greater than 50 nM

Sequence: PGHPLAPGP [peptide fragment consisting of the nine C-terminal amino acids of the N-terminal 15-mer]
- inhibition of SP464 binding by immunogen fragment (ACE) [2]: inhibited binding
- inhibition of SP464 binding by immunogen fragment (ACE) ([2]; listed as C-terminal sub-domain fragment): complete inhibition
